This note sets out measurements from patent publication US10105357B2, “Indication of antibiotic drugs for preparation of cancer inhibition pharmaceutical composition” (LAUNX BIOMEDICAL CO., LTD., priority 2014, dated 2018).

Data set [1] deals with A375 (Amelanotic Melanoma). Description: Cell viability analysis, skin cancer A375. It counts as cell-based, human.
In data set [2] the test system is PC3 (p53−) (Prostate Adenocarcinoma). Nature of the data set: Cell viability analysis, prostate cancer PC3. The data set is classed as cell-based. The note with it: Homo sapiens; drug 10 μM, 72 hours, WST-1, OD450 nm; read-out: cell viability (survival rate), PC3. On the technique in general: Tetrazolium assays rely on reduction of a dye to a coloured formazan, in cell work by metabolically active cells.

In data set [3] the test system is MCF7 (Mammary Gland, Adenocarcinoma). Nature of the data set: Cell viability analysis, breast cancer MCF7. The data set is classed as cell-based. As to conditions: Homo sapiens, drug 10 μM, 72 hours, WST-1, OD450 nm, read-out: cell viability (survival rate), MCF7.
For data set [4], the system named is HL-60 (Acute Promyelocytic Leukemia). Nature of the data set: Cell viability analysis, leukemia HL-60. As to conditions: Homo sapiens, drug 10 μM, 72 hours, WST-1, OD450 nm, read-out: cell viability (survival rate), HL-60. It counts as cell-based.
Data set [5] concerns A549 (Lung Adenocarcinoma). Nature of the data set: Cell viability analysis, lung cancer A549. As to conditions: Homo sapiens, A549, 72 h, read-out: cell viability (survival rate), A549.
Data set [6] has as its system HI650 (Lung Adenocarcinoma). Nature of the data set: Cell viability analysis, lung cancer HI650. The note with it: Homo sapiens, NCI-H1650, 72 h, read-out: cell viability (survival rate), H1650.
The subject of data set [7] is AGS (Gastric Adenocarcinoma). Nature of the data set: Cell viability analysis, gastric cancer AGS. As to conditions: Homo sapiens, 72 h, read-out: cell viability (survival rate), AGS.
Data set [8] has as its system HepG2 (Hepatocellular Carcinoma). Nature of the data set: Cell viability analysis, hepatic cancer HepG2. The note with it: Homo sapiens, HepG2, 72 h, read-out: cell viability (survival rate), HepG2.
Data set [9] has as its system HeLa (Cervix Adenocarcinoma). Nature of the data set: Cell viability analysis, cervical cancer HeLa. The note with it: Homo sapiens, 72 h, read-out: cell viability (survival rate), HeLa.
In data set [10] the test system is MKN-45 (Gastric Adenocarcinoma). Nature of the data set: Cell viability analysis, gastric cancer MKN-45. As to conditions: Homo sapiens, MKN-45, 72 h, read-out: cell viability (survival rate), MKN-45.
Data set [11] relates to TSGH-8301 (Urinary Bladder Carcinoma). Nature of the data set: Cell viability analysis, bladder cancer TSGH-8301. The note with it: Homo sapiens, 72 h, read-out: cell viability (survival rate), TSGH.

The term viability denotes a read-out of living cells in per cent, often relative to untreated cells. For the molecule `CC1(C)[C@H](C(=O)O)N2C(=O)C[C@H]2S1(=O)=O` [Sulbactam], the viability at 10 µM in data set [1] (Homo sapiens, A-375, drug 10 μM, 72 hours, WST-1, OD450 nm, read-out: cell viability (survival rate), A375) came out at 84.5%; in data set [2], 106%; in data set [3] it was 108%; in data set [4], 104%; in [5] it was 81.1%; in data set [6] it was 67%. Besides, the viability at 10 µM in [7] is 80.5%; in [8] it was 91.9%; in data set [9], 103%; in data set [10] it was 77.8%; in data set [11] it was 133%.
For the molecule `CN[C@H](CC(C)C)C(=O)N[C@H]1C(=O)N[C@@H](CC(N)=O)C(=O)N[C@H]2C(=O)N[C@H]3C(=O)N[C@H](C(=O)N[C@H](C(=O)O)c4cc(O)cc(O)c4-c4cc3ccc4O)[C@H](O)c3ccc(c(Cl)c3)Oc3cc2cc(c3O[C@@H]2O[C@H](CO)[C@@H](O)[C@H](O)[C@H]2O[C@H]2C[C@](C)(N)[C@H](O)[C@H](C)O2)Oc2ccc(cc2Cl)[C@H]1O.Cl` [Vancomycin HCl (Vancocin)], the “The results of antibiotic drug inhibiting cancer cell lines (cell viability analysis), A375” value in data set [1] (A375, repeated experiment) worked out at 83.4.
